Entries after “also recorded” stand apart in the source; their conditions may differ.
What was measured:
[1] = target: Kv1.3; assay: Kd on Kv1.3 [pM]
[2] = target: T1, Kv1.3 (Mus musculus, UniProt P16390); assay: Patch-clamp block of Kv1.3 channels stably expressed in L929 cells; assay type: cell-based
T1 construct: expressed in transfected cells

Sequences of proteins named here, by UniProt entry; tags and fusion partners are left off. A change or cut given only in a name is not applied to a line headed by its entry.
UniProt P16390, whole entry: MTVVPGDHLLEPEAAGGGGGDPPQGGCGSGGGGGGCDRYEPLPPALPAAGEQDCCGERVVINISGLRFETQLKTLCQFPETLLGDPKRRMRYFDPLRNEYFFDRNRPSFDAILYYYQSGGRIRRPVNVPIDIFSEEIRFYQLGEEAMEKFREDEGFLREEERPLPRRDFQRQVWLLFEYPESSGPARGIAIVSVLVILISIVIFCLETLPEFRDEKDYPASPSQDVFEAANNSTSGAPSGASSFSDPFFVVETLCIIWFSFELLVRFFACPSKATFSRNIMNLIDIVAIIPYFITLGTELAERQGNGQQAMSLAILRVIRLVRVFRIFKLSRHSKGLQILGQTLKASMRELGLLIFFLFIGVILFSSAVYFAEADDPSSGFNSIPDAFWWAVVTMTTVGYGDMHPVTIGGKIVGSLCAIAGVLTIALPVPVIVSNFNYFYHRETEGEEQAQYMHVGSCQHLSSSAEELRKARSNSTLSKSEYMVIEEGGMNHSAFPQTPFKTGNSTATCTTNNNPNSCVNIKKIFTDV
UniProt Q13936, whole entry: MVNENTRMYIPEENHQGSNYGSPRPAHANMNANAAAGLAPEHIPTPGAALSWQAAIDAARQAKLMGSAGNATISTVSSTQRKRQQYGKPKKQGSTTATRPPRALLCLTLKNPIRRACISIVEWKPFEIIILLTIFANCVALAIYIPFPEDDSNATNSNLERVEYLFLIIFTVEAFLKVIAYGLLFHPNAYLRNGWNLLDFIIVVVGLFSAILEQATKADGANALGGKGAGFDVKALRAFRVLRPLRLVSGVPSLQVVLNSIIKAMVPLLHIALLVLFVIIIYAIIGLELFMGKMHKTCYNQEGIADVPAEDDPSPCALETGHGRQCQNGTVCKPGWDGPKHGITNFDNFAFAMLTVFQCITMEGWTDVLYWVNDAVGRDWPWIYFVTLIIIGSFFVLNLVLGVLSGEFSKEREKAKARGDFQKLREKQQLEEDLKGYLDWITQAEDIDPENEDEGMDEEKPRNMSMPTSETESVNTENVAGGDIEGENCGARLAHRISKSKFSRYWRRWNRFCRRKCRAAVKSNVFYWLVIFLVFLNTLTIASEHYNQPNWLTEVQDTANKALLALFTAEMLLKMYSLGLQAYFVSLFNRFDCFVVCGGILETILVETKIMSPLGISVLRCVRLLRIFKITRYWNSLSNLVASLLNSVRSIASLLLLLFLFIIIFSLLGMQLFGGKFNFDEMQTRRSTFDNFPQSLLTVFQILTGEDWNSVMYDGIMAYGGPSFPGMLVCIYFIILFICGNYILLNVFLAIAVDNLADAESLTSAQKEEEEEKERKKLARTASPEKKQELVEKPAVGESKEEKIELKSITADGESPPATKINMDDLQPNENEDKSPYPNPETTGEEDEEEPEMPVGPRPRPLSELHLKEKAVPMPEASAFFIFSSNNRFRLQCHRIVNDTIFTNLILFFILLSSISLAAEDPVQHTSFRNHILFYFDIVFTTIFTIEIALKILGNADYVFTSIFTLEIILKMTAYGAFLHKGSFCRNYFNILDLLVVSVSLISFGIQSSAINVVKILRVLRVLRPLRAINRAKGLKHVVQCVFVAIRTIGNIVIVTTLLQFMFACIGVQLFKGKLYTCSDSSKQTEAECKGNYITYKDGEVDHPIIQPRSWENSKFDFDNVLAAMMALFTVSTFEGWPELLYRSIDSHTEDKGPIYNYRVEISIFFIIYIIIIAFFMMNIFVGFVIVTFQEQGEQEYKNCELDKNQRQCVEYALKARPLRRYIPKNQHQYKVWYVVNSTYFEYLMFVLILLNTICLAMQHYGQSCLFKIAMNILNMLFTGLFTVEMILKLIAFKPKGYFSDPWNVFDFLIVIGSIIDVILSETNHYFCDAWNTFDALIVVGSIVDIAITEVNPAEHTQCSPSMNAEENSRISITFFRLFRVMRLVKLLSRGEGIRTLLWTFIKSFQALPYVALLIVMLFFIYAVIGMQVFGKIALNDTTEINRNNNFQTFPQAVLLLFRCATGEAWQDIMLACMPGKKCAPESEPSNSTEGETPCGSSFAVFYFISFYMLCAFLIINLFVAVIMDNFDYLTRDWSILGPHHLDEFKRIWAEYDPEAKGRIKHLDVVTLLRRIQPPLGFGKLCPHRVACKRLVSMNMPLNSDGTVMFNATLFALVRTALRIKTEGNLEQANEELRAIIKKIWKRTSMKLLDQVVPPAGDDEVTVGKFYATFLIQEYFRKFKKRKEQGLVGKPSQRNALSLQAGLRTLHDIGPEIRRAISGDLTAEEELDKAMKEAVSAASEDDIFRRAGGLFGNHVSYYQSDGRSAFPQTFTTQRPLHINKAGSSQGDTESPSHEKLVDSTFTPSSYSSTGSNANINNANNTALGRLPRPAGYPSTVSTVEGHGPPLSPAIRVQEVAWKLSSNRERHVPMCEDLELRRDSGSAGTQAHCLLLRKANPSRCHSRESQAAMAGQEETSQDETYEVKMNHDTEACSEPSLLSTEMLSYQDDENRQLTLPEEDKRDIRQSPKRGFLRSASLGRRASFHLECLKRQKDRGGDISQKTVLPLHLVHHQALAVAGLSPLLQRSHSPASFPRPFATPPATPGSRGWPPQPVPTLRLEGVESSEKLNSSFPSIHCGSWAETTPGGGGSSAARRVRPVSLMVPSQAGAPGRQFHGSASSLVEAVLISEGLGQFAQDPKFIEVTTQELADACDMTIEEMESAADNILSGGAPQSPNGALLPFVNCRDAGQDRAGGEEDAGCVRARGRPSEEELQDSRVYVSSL
UniProt Q12809: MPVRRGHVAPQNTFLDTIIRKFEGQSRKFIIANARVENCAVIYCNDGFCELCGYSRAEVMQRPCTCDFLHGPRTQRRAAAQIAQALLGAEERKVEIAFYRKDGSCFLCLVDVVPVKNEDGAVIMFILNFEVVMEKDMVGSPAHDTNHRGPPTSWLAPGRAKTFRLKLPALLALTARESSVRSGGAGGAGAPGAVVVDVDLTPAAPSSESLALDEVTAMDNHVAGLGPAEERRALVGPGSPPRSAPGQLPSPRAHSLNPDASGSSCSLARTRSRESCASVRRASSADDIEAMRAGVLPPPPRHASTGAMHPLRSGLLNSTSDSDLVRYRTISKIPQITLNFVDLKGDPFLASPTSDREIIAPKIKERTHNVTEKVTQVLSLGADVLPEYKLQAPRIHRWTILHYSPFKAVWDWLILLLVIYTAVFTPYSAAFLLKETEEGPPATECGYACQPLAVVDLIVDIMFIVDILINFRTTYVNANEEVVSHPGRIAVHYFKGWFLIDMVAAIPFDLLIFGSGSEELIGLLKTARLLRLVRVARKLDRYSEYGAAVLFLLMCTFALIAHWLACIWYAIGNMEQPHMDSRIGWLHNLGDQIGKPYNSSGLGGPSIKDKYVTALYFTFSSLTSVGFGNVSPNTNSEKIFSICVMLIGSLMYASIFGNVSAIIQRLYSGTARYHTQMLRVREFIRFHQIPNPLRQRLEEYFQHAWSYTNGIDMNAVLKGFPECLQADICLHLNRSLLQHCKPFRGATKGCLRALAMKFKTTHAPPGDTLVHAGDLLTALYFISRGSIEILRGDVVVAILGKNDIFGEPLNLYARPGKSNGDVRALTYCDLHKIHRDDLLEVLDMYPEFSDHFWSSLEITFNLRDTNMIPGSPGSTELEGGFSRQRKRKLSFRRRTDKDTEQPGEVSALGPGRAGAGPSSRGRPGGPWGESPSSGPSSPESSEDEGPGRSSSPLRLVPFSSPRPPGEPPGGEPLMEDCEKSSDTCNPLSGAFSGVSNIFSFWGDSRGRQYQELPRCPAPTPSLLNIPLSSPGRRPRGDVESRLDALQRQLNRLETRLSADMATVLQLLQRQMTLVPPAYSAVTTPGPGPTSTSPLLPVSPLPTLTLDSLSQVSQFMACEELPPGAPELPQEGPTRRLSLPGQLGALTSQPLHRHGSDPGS
UniProt P16388, whole entry: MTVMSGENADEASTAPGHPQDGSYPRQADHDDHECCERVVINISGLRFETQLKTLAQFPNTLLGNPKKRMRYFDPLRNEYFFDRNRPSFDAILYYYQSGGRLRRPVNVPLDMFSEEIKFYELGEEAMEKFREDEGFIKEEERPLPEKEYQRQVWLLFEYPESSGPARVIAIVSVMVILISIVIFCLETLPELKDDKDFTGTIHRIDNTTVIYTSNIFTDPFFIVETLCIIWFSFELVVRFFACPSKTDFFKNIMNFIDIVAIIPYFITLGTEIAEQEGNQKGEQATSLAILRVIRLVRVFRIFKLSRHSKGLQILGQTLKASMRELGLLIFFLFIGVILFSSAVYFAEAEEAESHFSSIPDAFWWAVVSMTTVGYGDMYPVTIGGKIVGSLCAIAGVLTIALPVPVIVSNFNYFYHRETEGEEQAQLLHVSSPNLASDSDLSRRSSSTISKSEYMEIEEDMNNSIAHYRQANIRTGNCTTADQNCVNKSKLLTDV

[3] = tested on: Rats with EAE; assay: Toxicity in rats with EAE; assay type: in vivo, rat; conditions: 10 mg/kg/day for 10 days
[4] = tested on: human PBMCs; assay: Cytotoxicity (% dead cells), human PBMCs; assay type: cell-based; conditions: 100 nM, 48 hours
[5] = target: Cav1.2 (Homo sapiens, UniProt Q13936); assay: Ion channel specificity panel: Cav1.2; assay type: cell-based
[6] = Cytotoxicity (% dead cells), PAS T cells; assay type: cell-based, rat; conditions: 100 nM, 48 hours
[7] = Cytotoxicity (% dead cells), Burkitt lymphoma; assay type: cell-based; conditions: 100 nM, 48 hours
[8] = tested on: conscious rats; assay: Heart rate variability analysis (electrocardiogram) in conscious rats; assay type: in vivo, rat; conditions: acute, 10 μg/kg
[9] = target: Kv11.1 (HERG) (Homo sapiens, UniProt Q12809); assay: Ion channel specificity panel: Kv11.1 (HERG); assay type: cell-based
[10] = assay type: in vivo, rat; conditions: single subcutaneous injection of 200 mg/kg
[11] = Stability in rat plasma or PBS containing 2% rat plasma at 37° C.; assay type: in vitro ADME; conditions: rat plasma
[12] = target: T2, Kv1.1 (Mus musculus, UniProt P16388); assay: Patch-clamp block of Kv1.1 channels stably expressed in L929 cells; assay type: cell-based
T2 construct: expressed in transfected cells

With `CC[C@H](C)[C@@H]1NC(=O)[C@@H](NC(=O)[C@H](CO)NC(=O)[C@H](CCCNC(=N)N)NC(=O)COCCOCCNC(=O)[C@H](N)Cc2ccc(OP(=O)(O)O)cc2)CSSC[C@@H](C(=O)O)NC(=O)[C@H]([C@@H](C)O)NC(=O)CNC(=O)[C@@H]2CSSC[C@@H]3NC(=O)[C@H](CCC(N)=O)NC(=O)[C@H](Cc4ccccc4)NC(=O)[C@H](C)NC(=O)[C@H]([C@@H](C)O)NC(=O)[C@H](CSSC[C@H](NC(=O)[C@H](Cc4ccccc4)NC(=O)[C@H](CO)NC(=O)[C@H](CC(C)C)NC(=O)[C@H](CCCNC(=N)N)NC(=O)[C@H](Cc4ccc(O)cc4)NC(=O)[C@H](CCCCN)NC(=O)[C@H](CCSC)NC(=O)[C@H](CO)NC(=O)[C@H](Cc4c[nH]cn4)NC(=O)[C@H](CCCCN)NC3=O)C(=O)N[C@@H](CCCNC(=N)N)C(=O)N[C@@H](CCCCN)C(=O)N[C@@H]([C@@H](C)O)C(=O)N2)NC(=O)[C@H](CCCNC(=N)N)NC(=O)[C@H](CO)NC(=O)[C@H](CCCCN)NC(=O)[C@@H]2CCCN2C(=O)[C@H]([C@@H](C)CC)NC(=O)[C@H]([C@@H](C)O)NC(=O)[C@H](CC(=O)O)NC1=O` [ShK(D5)] the Kd [1] was 1.1 nM and the “potency compared with ShK(L5)” value [2] was “an order of magnitude less potent”.
For `CC[C@H](C)[C@@H]1NC(=O)[C@@H](NC(=O)[C@H](CO)NC(=O)[C@H](CCCNC(=N)N)NC(=O)COCCOCCNC(=O)[C@@H](N)Cc2ccc(OP(=O)(O)O)cc2)CSSC[C@@H](C(=O)O)NC(=O)[C@H]([C@@H](C)O)NC(=O)CNC(=O)[C@@H]2CSSC[C@@H]3NC(=O)[C@H](CCC(N)=O)NC(=O)[C@H](Cc4ccccc4)NC(=O)[C@H](C)NC(=O)[C@H]([C@@H](C)O)NC(=O)[C@H](CSSC[C@H](NC(=O)[C@H](Cc4ccccc4)NC(=O)[C@H](CO)NC(=O)[C@H](CC(C)C)NC(=O)[C@H](CCCNC(=N)N)NC(=O)[C@H](Cc4ccc(O)cc4)NC(=O)[C@H](CCCCN)NC(=O)[C@H](CCSC)NC(=O)[C@H](CO)NC(=O)[C@H](Cc4cnc[nH]4)NC(=O)[C@H](CCCCN)NC3=O)C(=O)N[C@@H](CCCNC(=N)N)C(=O)N[C@@H](CCCCN)C(=O)N[C@@H]([C@@H](C)O)C(=O)N2)NC(=O)[C@H](CCCNC(=N)N)NC(=O)[C@H](CO)NC(=O)[C@H](CCCCN)NC(=O)[C@@H]2CCCN2C(=O)[C@H]([C@@H](C)CC)NC(=O)[C@H]([C@@H](C)O)NC(=O)[C@H](CC(=O)O)NC1=O` [ShK(L5)], the signs of toxicity [3] was “no signs of toxicity”, the “cytotoxicity in human and rat lymphoid cells” value [4] was “minimal cytotoxicity” and the Kd [5] was greater than 100 nM. The cytotoxicity at 0.1 µM [6] was 8.1 ± 0.8%, the cytotoxicity at 0.1 µM [7] was 3.1 ± 0.9% and the “HF (n.u.)” value [8] was 79 ± 37 n.u. For the same compound, the “LF (n.u.)” value [8] was 64 ± 10 n.u, the SDANN5 min [8] was 6.9 ± 2.3 and the Kd [9] was greater than 100 nM. For the same compound, the “effect on Kv11.1 channels” value ([9]; 100 nM) was “no effect”, the Peak serum level [10] was 12 nM and the “time at which detectable in serum after injection” value [10] was 5 min. The stability in plasma [11] was “remarkably stable in plasma; also recorded: extremely stable in plasma”.
`CC[C@H](C)[C@@H]1NC(=O)[C@@H](NC(=O)[C@H](CO)NC(=O)[C@H](CCCNC(=N)N)NC(=O)COCCOCCNC(=O)[C@@H](N)Cc2ccc(O)cc2)CSSC[C@@H](C(=O)O)NC(=O)[C@H]([C@@H](C)O)NC(=O)CNC(=O)[C@@H]2CSSC[C@@H]3NC(=O)[C@H](CCC(N)=O)NC(=O)[C@H](Cc4ccccc4)NC(=O)[C@H](C)NC(=O)[C@H]([C@@H](C)O)NC(=O)[C@H](CSSC[C@H](NC(=O)[C@H](Cc4ccccc4)NC(=O)[C@H](CO)NC(=O)[C@H](CC(C)C)NC(=O)[C@H](CCCNC(=N)N)NC(=O)[C@H](Cc4ccc(O)cc4)NC(=O)[C@H](CCCCN)NC(=O)[C@H](CCSC)NC(=O)[C@H](CO)NC(=O)[C@H](Cc4c[nH]cn4)NC(=O)[C@H](CCCCN)NC3=O)C(=O)N[C@@H](CCCNC(=N)N)C(=O)N[C@@H](CCCCN)C(=O)N[C@@H]([C@@H](C)O)C(=O)N2)NC(=O)[C@H](CCCNC(=N)N)NC(=O)[C@H](CO)NC(=O)[C@H](CCCCN)NC(=O)[C@@H]2CCCN2C(=O)[C@H]([C@@H](C)CC)NC(=O)[C@H]([C@@H](C)O)NC(=O)[C@H](CC(=O)O)NC1=O` [ShK(L4)] showed a Kd [1] of 0.047 ± 0.006 nM.
For `CC[C@H](C)[C@@H]1NC(=O)[C@@H](NC(=O)[C@H](CO)NC(=O)[C@H](CCCNC(=N)N)NC(=O)COCCOCCNC(=O)[C@@H](N)Cc2ccc(C(=O)O)cc2)CSSC[C@@H](C(=O)O)NC(=O)[C@H]([C@@H](C)O)NC(=O)CNC(=O)[C@@H]2CSSC[C@@H]3NC(=O)[C@H](CCC(N)=O)NC(=O)[C@H](Cc4ccccc4)NC(=O)[C@H](C)NC(=O)[C@H]([C@@H](C)O)NC(=O)[C@H](CSSC[C@H](NC(=O)[C@H](Cc4ccccc4)NC(=O)[C@H](CO)NC(=O)[C@H](CC(C)C)NC(=O)[C@H](CCCNC(=N)N)NC(=O)[C@H](Cc4ccc(O)cc4)NC(=O)[C@H](CCCCN)NC(=O)[C@H](CCSC)NC(=O)[C@H](CO)NC(=O)[C@H](Cc4c[nH]cn4)NC(=O)[C@H](CCCCN)NC3=O)C(=O)N[C@@H](CCCNC(=N)N)C(=O)N[C@@H](CCCCN)C(=O)N[C@@H]([C@@H](C)O)C(=O)N2)NC(=O)[C@H](CCCNC(=N)N)NC(=O)[C@H](CO)NC(=O)[C@H](CCCCN)NC(=O)[C@@H]2CCCN2C(=O)[C@H]([C@@H](C)CC)NC(=O)[C@H]([C@@H](C)O)NC(=O)[C@H](CC(=O)O)NC1=O` [ShK(L9), L-p-COOH-Phe], the Kd [1] was 0.094 ± 0.007 nM.
With `CC[C@H](C)[C@@H]1NC(=O)[C@@H](NC(=O)[C@H](CO)NC(=O)[C@H](CCCNC(=N)N)NC(=O)COCCOCCNC(=O)[C@@H](N)Cc2ccc(OP(=O)(O)OC)cc2)CSSC[C@@H](C(=O)O)NC(=O)[C@H]([C@@H](C)O)NC(=O)CNC(=O)[C@@H]2CSSC[C@@H]3NC(=O)[C@H](CCC(N)=O)NC(=O)[C@H](Cc4ccccc4)NC(=O)[C@H](C)NC(=O)[C@H]([C@@H](C)O)NC(=O)[C@H](CSSC[C@H](NC(=O)[C@H](Cc4ccccc4)NC(=O)[C@H](CO)NC(=O)[C@H](CC(C)C)NC(=O)[C@H](CCCNC(=N)N)NC(=O)[C@H](Cc4ccc(O)cc4)NC(=O)[C@H](CCCCN)NC(=O)[C@H](CCSC)NC(=O)[C@H](CO)NC(=O)[C@H](Cc4c[nH]cn4)NC(=O)[C@H](CCCCN)NC3=O)C(=O)N[C@@H](CCCNC(=N)N)C(=O)N[C@@H](CCCCN)C(=O)N[C@@H]([C@@H](C)O)C(=O)N2)NC(=O)[C@H](CCCNC(=N)N)NC(=O)[C@H](CO)NC(=O)[C@H](CCCCN)NC(=O)[C@@H]2CCCN2C(=O)[C@H]([C@@H](C)CC)NC(=O)[C@H]([C@@H](C)O)NC(=O)[C@H](CC(=O)O)NC1=O` [ShK(L6)] the “selectivity for Kv1.3 over Kv1.1” value [12] was 11 fold.
